Test system: NMDA receptor
Assay: Anti-NMDA activity: prevention of convulsions and death caused by NMDA injected into the lateral ventricle of the brain
Assay type: in vivo
Conditions: mice; i.p. 40 minutes before NMDA 0.1 μg into the lateral ventricle; probit analysis
Experimental: The experiment was conducted in white non-inbred male mice of 20–24 g of weight. A solution of the test agent in 0.2 ml of 5% aqueous dimethylsulfoxide was injected intraperitoneally 40 minutes before the injection of NMDA into the lateral vehicle of the brain. For the mice that had been prepared beforehand for the experiment a skin flap on the head of each mouse was removed under ether anestesia and a hole was bored in the skull by a fine drill. NMDA (0.1 μg) in a volume of 1.4 μl was injected with a microsyringe. The microsyringe needle was immersed to a depth of 2.5 mm. After the operation, the wound was treated with a 2% novocaine solution. […] The accuracy of NMDA injection was monitored by injection of methylene blue. Two to 4 hours after the operation, the mice were used for a pharmacological experiment.
The animals inoculated with a saline solution were used as control.
Each dose of the agent was tested in a croup of 6–8 animals. The ED50 value (the dose of the agent preventing the development of convulsions and the death of 50% of the animals) was determined by a probit-analysis method (Litchfild J. T., Wicoxon F. J.—Pharmacol. Exp. Therap., 1949, v. 96, p. 99–114).

Cc1ccc2c(c1)[C@H]1CN(C)CC[C@H]1N2 (racemic) [No. 4, cis(±)2,8-dimethyl-2,3,4,4a,5,9b-hexahydro-1H-pyrido[4,3-b]indole]
ED50 (dose preventing the development of convulsions and the death of 50% of the animals): 31 ± 7 mg/kg
